From patent publication US10646585B2, “Hydrophilic linkers and ligand-drug conjugates thereof” (priority 2017, dated 2020) come the findings set out here.

What all share (format): cell-based, human
The subject of one data set is BT-474 cells. Kind of data set: In vitro cytotoxicity assay (MTT), BT-474. The following applies: BT474, Her2++, 120 hours incubation. The protocol:
(§1) The cell lines used in the cytotoxicity assays were HL-60, a human promyelocytic leukemia cell line; NCI-N87, a human gastric carcinoma cell line; BT-474, a human invasive ductal carcinoma cell line; and SKOV3, a human ovarian carcinoma cell line. For HL-60, NCI-N87, and BT-474 cells, the cells were grown in RPMI-1640 with 10% FBS. For SKOV3 cells, the cells were grown in McCoy's 5A Medium with 10% FBS. To run the assay, the cells (180 μl, 6000 cells) were added to each well in a 96-well plate and incubated at 37° C. with 5% CO2 for 24 hours. Next, the cells were treated with test compounds (20 μl) at various concentrations in appropriate cell culture medium (total volume, 0.2 mL). The control wells contain cells and the medium but lack the test compounds. The plates were incubated at 37° C. with 5% CO2 for 120 hours. MTT (5 mg/ml) was then added to the wells (20 μl) and the plates were incubated at 37° C. for 1.5 hr. The medium was carefully removed and DMSO (180 μl) was added afterward.
(§2) After it was shaken for 15 min, the absorbance was measured at 490 nm and 570 nm with a reference filter of 620 nm. The inhibition % was calculated according to the following equation: inhibition %=[1-(assay-blank)/(control-blank)]×100.

In the next data set the test system is SKOV3 cells. Kind of data set: In vitro cytotoxicity assay (MTT), SKOV3. The note with it: SKOV3, Her2++, 120 hours incubation. The procedure: as §1, §2
Another data set relates to NCI-N87 cells. Kind of data set: In vitro cytotoxicity assay (MTT), N87. The note with it: N87-3, Her2++, 120 hours incubation. The procedure:
as §1, §2

A further data set has as its system HL-60 cells. Kind of data set: In vitro cytotoxicity assay (MTT), HL-60. The note with it: HL-60, Her2−, 120 hours incubation. The procedure:
as §1, §2

Bounds are passed on as bounds.

A word on the IC50: it is the concentration needed to halve the response being measured.

With T-DM1, the IC50 in the data set on BT-474 cells is 0.78 nM; in the data set with SKOV3 cells it was 0.2 nM; in the data set on NCI-N87 cells, 0.89 nM; in the data set with HL-60 cells it was more than 10000 nM.
